Molecular target: OX2R (Homo sapiens, UniProt O43614)
Test: radioligand binding assay, OX2 receptor
Conditions: read-out: OX2R Ki; membranes prepared from CHO cells expressing the OX2 receptor
Experimental: The utility of the compounds in accordance with the present invention as orexin receptor OX1R and/or OX2R antagonists may be readily determined without undue experimentation by methodology well known in the art, including the “FLIPR Ca^2+ Flux Assay” (Okumura et al., Biochem. Biophys. Res. Comm. 280:976-981, 2001). In a typical experiment the OX1 and OX2 receptor antagonistic activity of the compounds of the present invention was determined in accordance with the following experimental method. […] Within the Fluorescent Imaging Plate Reader (FLIPR, Molecular Devices), test compounds are added to the plate in a volume of 25 ul, incubated for 5 min and finally 25 ul of agonist is added. Fluorescence is measured for each well at 1 second intervals for 5 minutes and the height of each fluorescence peak is compared to the height of the fluorescence peak induced by 70 pM Ala-6,12 orexin-A with buffer in place of antagonist. […] Alternatively, compound potency can be assessed by a radioligand binding assay (described in Bergman et. al. Bioorg. Med. Chem. Lett. 2008, 18, 1425-1430) in which the inhibition constant (Ki) is determined in membranes prepared from CHO cells expressing either the OX1 or OX2 receptor. The intrinsic orexin receptor antagonist activity of a compound which may be used in the present invention may be determined by these assays.

The chains behind the UniProt entries cited, without tags or fusion partners.
UniProt O43614, whole entry: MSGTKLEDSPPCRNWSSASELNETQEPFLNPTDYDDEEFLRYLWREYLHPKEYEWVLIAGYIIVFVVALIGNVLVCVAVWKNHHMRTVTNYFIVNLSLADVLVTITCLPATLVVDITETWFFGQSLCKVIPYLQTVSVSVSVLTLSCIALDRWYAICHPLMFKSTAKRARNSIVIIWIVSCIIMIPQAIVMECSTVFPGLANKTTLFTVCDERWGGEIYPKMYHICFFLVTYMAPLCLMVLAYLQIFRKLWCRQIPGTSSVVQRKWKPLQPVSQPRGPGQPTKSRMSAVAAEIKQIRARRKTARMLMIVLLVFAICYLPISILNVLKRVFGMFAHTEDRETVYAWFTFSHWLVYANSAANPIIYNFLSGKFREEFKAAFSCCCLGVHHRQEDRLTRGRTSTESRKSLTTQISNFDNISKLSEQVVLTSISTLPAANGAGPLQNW

In the case of COc1ccc(CNC(=O)c2cc(-c3cncc(C)c3)cnc2-c2ccccc2F)nc1OC, the Ki is reported as 0.74 nM.

Reference: patent US8003797B2, “Pyridine carboxamide orexin receptor antagonists” (Merck Sharp & Dohme Corp., priority 2007, dated 2011)
